# Binding of CDR-mutated scFvs to a peptide of the spike HR2 region

Antigen: PDVDLGDISGINAS, a 14-residue peptide of the SARS-CoV-2 spike HR2 region.

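The starting antibody came from a phage panning campaign against this peptide. These sequences belong to a second round, designed from the earlier measurements on random variants of the parent. Several design methods are mixed in this list. Affinity was read by AlphaSeq, a pooled yeast mating assay with surface-displayed partners. After mating in shaken culture at 30 °C for 16 h, diploids were selected and their barcode pairs sequenced. The ratio of observed to expected reads was calibrated, replicate by replicate, on BCL2-family standards whose Kd was known from biolayer interferometry. Each pool was mated in six replicate cultures.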

Parent scFv Ab-14: VH joined to VL by the linker GGGGSGGGGSGGGGS. Changes lie in the light chain CDRs alone.
VH: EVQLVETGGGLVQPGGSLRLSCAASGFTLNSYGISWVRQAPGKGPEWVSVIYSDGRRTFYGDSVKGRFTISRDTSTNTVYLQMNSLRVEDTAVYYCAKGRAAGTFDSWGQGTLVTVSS
VL: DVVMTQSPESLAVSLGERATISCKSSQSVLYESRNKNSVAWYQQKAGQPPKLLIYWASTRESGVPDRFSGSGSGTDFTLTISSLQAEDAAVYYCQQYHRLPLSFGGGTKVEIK

Variants are written as CDR1, CDR2 and CDR3 of the light chain (limits as in the source). Parent: KSSQSVLYESRNKNSVA, WASTRES, QQYHRLPLS.
The read-out is the apparent dissociation constant on a log10 scale (nM): the lower, the stronger.
Replicates are averaged; those with no signal do not enter the mean.
Where no diploid with the target was found in any replicate, the entry reads "nd": below detection, most likely a poor binder, though not proof of it.
Order: sorted from the lowest average up, undetected variants last.

"log10 Kd (nM), mean",replicates with signal,empty controls,CDR-L1,CDR-L2,CDR-L3
-0.56,6/6,1/18,KLSQSKLYESRNSNNVA,DASTRES,QQYHRLPLS
-0.52,6/6,0/18,KVSQSDLYESRNKNSVA,QASTRES,QQYHRLPLS
-0.44,6/6,0/18,ALTAHRLVAIEAKNSIA,NAVMRYD,QQYAQLPLM
-0.43,6/6,0/18,KSSPSVLYESRNKHSVA,DASTRES,QQYHRLPLS
-0.31,6/6,0/18,KLGDYVHTESRNKNSIA,DMRTRES,QQYYRLPLS
-0.21,6/6,0/18,KLDSQYQHGTNQKSAMA,DSSVSTQ,QQYSRLPLS
-0.20,6/6,0/18,KLQQSNLYESRNKNSVA,NASTREV,QQYHRLPLS
-0.18,6/6,2/18,KLYQSMGYLSHNKDSIA,DMSRREN,QQYHRLPLS
-0.08,6/6,2/18,KLSFSMLYESRNKNSVA,EASTRES,QQYHRLPLS
-0.08,6/6,1/18,KVSQSMDYESRNKNSVA,NASTRES,QQYHRLPLS
-0.06,6/6,0/18,KVQQMWLYGSRNKNSVA,DASQREE,QQYHRLPLS
-0.01,6/6,0/18,KLQQSQLYESRMKNSVA,NASQRES,QQYHRLPLS
0.04,6/6,2/18,KFSQSVDYEDRQKNSVA,NASTRLS,QQYHRLPLS
0.08,6/6,2/18,KSSQSEPYESRNKNSVA,NASTRES,QQYHRLPLS
0.09,6/6,0/18,KQSQSVKFESRNKNSVA,DASTRES,QQYHRLPLS
0.16,6/6,2/18,KISQSMLYEPRNWNSVA,NASTRLR,QQYHRLPLS
0.18,6/6,3/18,SIYDATGMESRNRNPIA,DVSTRPS,QQYDRLPLS
0.19,6/6,1/18,TISNVMNTLSRHGNNVA,DLAERED,QQYFRLPLS
0.23,6/6,0/18,SLPESLPQQQTNVNAVA,GAQHTAV,QQYGRLPLT
0.23,6/6,0/18,HIQDDIGGAKEQFDSVA,STEERSY,QQYYRLPLS
0.24,6/6,0/18,SFSQSVLYESRTKNSVA,NASTRES,QQYHRLPLS
0.34,6/6,2/18,KSEQGALYESRNKNSVA,GASTRES,QQYHRLPLS
0.38,6/6,0/18,GHDHTMESGKQAPNSIA,NAEQKTI,QQYQRLPLS
0.43,6/6,3/18,KVSQSVLYESRMKNSVA,GASTRCS,QQYHRLPLE
0.48,6/6,0/18,QVQAFNEHLKDQTQAMA,NATMRDQ,QQYERLPLS
0.50,6/6,0/18,KQSQSDLYESRNKNSVA,MASTRES,QQYHRLPLS
0.52,6/6,1/18,KLTGITGLEKVHGNNVA,EMETREK,QQYNRLPLS
0.56,6/6,0/18,RFDAAMPMQNSNINSIA,EKAIQAD,QQYNRLPLS
0.63,6/6,0/18,HISMMVGTKGYRKNSVA,NAETRED,QQYHRLPLS
0.64,6/6,0/18,KLYVSTMLEEHDKNSIA,DLSTRGN,QQYHRLPLS
0.76,6/6,0/18,KLSVSWLFESIEHNSVA,ERSTREQ,QDYNRLPLS
0.79,6/6,2/18,QLKTEVIDNQQLRNSIA,ENELRAM,QQYLMLPLS
0.80,6/6,0/18,QLEREALWGANYDYSIA,AQDVAMP,QQYDRLPLI
0.80,6/6,1/18,KVYGGINFQSSAKNSIA,EEVMRTK,QQYARLPLS
0.80,6/6,1/18,KLFQSVLYESRNKNSVA,NASTRES,QQYHRLPLS
1.09,6/6,2/18,MISDLTMMGSRNKNSVA,DLSTRGS,QQYHRLPLS
1.27,5/6,0/18,KLSMSYRYESENKNSIA,ELVTRMS,QQYNRLPLS
1.47,6/6,0/18,KSSQSVLGESRNKNSVA,WASTREV,QQYHRLPLS
1.57,6/6,1/18,MLGDVGFGLTRKEDSVA,DNDTRED,QQYDRLPLS
1.59,6/6,1/18,AVSIEHKENTAYWNAIA,DTSQRNN,QQYDQLPLS
1.60,6/6,0/18,KLSWSVLYESRNLNSVA,WASTRES,QQYHRLPLS
1.69,6/6,1/18,HMLYAFNTGSLRDNNVA,EGETVLD,QQYFRLPIT
1.72,6/6,1/18,KLGGTLNTEMHKKNNVA,DLVMREN,QQYFRLPLS
1.78,5/6,1/18,KSSQSVLYESRNKNSVA,HAWTREM,QQYHRLPLS
1.80,6/6,1/18,KSSQSVLYESRNKNSVA,WGSTREH,QQYHRLPLS
1.99,3/6,1/18,KLRQVTEYESFNKNSVA,QTETRES,QDYDRLPLS
2.21,2/6,0/18,KSSQSVLYESRNKNSVA,WASTRES,QQYHRLPLV
2.25,2/6,1/18,HVSEMIFAQMKMRNSVA,ENNTREA,QQYDRLPLS
2.33,2/6,0/18,MISQLINMGQFAINSVA,QAETRCN,QQYDRLPLE
2.38,6/6,1/18,MVNTNLVHQAQRDNNIA,EADMVAA,QDYDRLPLI
2.46,6/6,1/18,ILYDSVGTLSRDKNSVA,DNSTRES,QQYDRLPLS
2.47,5/6,0/18,KSSQSVLYESRNVNSVA,WASVRES,QQYHRLPLS
2.49,1/6,0/18,MISQLYNMGMFAINSVA,QASLRCN,QQYDRLPLT
2.56,1/6,0/18,SSPQSVLYESRNKNSVA,WASNRES,QQYHRLPLS
2.97,5/6,3/18,QLEFERGQEWKNGAAIA,GNTESLH,QQYAMLPLS
nd,0/6,0/18,SLGLVTMLEYAGRNSVA,NNSTRES,QQYDRLPLS
nd,0/6,0/18,KLSMTTEMEHKNRNSVA,ELVTRLN,QQYNRLPLS
nd,0/6,0/18,KSSQSVLYESRAKNSVA,WASTRES,QQVHRLPLS

Nonspecific signal, from three strains lacking the peptide, appeared in 4% of pairings of all light chain designs, centred on 2.64 (5% of these signals below 1.59); values are not corrected for it. Also given: how often the same scFv was detected with the empty control strains.
The authors averaged sequences with at least three values out of six and counted those with two or fewer as poor binders.
Values of this round are not directly comparable with the first-round values of the same sequences.

Reference: Li et al. 2023, doi:10.1038/s41467-023-39022-2. File: FLAb, binding data.